The values below are quoted from earlier work in article PMC5766608, “Target engagement imaging of PARP inhibitors in small-cell lung cancer” (Nature Communications, 2018).

By UniProt entry, the sequences of proteins in these tests, tags left out. Where a name states a change or a piece, a line headed by the entry shows the natural chain unless it says otherwise.
UniProt Q9UGN5: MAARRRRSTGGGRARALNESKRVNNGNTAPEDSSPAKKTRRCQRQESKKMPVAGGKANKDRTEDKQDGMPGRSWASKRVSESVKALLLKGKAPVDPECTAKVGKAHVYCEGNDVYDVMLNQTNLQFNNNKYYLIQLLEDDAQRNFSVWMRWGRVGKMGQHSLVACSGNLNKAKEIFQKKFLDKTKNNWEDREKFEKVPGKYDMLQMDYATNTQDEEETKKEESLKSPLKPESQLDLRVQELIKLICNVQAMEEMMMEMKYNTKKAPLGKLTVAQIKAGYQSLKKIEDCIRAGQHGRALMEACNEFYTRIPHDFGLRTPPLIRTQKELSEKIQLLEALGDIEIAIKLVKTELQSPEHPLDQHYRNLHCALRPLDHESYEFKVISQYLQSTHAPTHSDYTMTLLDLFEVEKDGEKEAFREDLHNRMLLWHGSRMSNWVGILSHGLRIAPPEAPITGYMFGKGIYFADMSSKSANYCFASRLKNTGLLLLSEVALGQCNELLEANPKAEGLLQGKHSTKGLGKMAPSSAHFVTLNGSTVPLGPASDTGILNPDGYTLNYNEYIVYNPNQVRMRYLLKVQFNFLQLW

For this series, the target named is T1, PARP2 (Homo sapiens, UniProt Q9UGN5).
T1 construct: purchased BPS Bioscience, San Diego, CA
Conditions: cited from earlier work.

In general, IC50 refers to the midpoint of a concentration-inhibition curve. As for `O=C(COc1cccc2c(=O)[nH]ccc12)c1ccccc1` [UPF1069], the IC50 was 300 ± 100 nM.
